Data reported in article PMC12136037 (2025).

System: ~100 representative kinases
Assay: DSF 100 kinase selectivity screen

CN[C@@H]1C[C@H]2O[C@@](C)([C@@H]1OC)n1c3ccccc3c3c4c(c5c6ccccc6n2c5c31)C(=O)NC4 [Staurosporine]
# >5K: 76
S(5K): 0.691
